Experimental data as given in patent EP2057188B1 (priority 2006, dated 2008).

Assays:
[1] = target: T1, GIP Receptor (Homo sapiens, UniProt P48546); type: cell-based
T1 sequence (P48546 22-466): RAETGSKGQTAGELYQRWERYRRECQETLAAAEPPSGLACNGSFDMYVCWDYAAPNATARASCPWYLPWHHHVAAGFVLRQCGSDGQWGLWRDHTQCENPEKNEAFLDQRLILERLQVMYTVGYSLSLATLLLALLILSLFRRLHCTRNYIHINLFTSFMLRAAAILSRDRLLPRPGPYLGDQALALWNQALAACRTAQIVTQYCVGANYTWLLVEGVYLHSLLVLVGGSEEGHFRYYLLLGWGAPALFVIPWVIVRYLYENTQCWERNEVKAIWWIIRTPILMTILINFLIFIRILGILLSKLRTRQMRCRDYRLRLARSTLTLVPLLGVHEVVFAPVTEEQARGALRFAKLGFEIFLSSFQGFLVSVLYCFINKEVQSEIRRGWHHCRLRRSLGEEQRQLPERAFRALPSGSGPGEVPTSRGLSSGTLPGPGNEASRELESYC

[2] = Protease resistance with RINm5F cell membrane extracts; type: in vitro ADME; conditions: 30µM peptide, 37°C, monitored for 6 hr by LC-MS
[3] = Stability in human plasma; type: in vitro ADME; conditions: 37°C, 0-5 hrs
[4] = target: human GIP receptor (Homo sapiens, UniProt P48546); conditions: read-out: IC50 in HEK-GIPR
[5] = receptor activation, read-out: Cyclase (GIPR Cyclase)

Row | Substance | EC50 [1, 5] [nM] | EC50 ([1]; the 20th table, read-out: GIPR Cyclase) [nM] | resistance to proteases [2] | human plasma stability score [3] | IC50 [4] [nM] | EC50 ([1]; the 21st table, read-out: Cyclase) [nM]
1 | YSDGTFISDYSIAMDKlHQQDFVNWLLAQKPKKIRYS-NH2 [Compound 0601GIP4386] | 56 |  |  |  |  | 
2 | YaEGTFISDYSIAMDKIHQQDFVNWLLAQKPSSGAPPPS-NH2 [Compound 0601GIP3794] |  | 38 | more stable than its parent molecule GIP(1-30) without the shield or the full length GIP(1-42) | stable (greater than about 90% remaining at 5 hours of treatment to human plasma) |  | 
3 | [dAla2, Leu14, beta-Ala31, beta-Ala32] GIP-(1-32)-Exendin-4 (31-39) [Compound 0601GIP4179] | 55.9 |  |  |  | 0.7 | 
4 | [dAla2]GIP-(1-30)-[Octylglycine 34] Exendin-4 (31-39) [Compound 0601GIP4252] | 154 |  |  |  |  | 
5 | octylglycine-GIP(1-30)-Exendin-4-(31-39) [Compound 0601GIP4178] | 36.2 |  |  | unstable (less than about 75% remaining at 2 hours) | 0.17 | 96

Like-named read-outs stand apart in the source and are kept apart here.
